Data: ChEMBL document CHEMBL4680184, “Simple amphiphilic α-hydrazido acids: Rational design, synthesis, and in vitro bioactivity profile of a novel class of potential antimicrobial compounds” (Eur J Med Chem, 2020)

System: Pseudomonas aeruginosa
Conditions: ATCC 27853

GENTAMICIN
MIC: 0.5 µg/mL
